Laboratory results: US20050043515A1, “Tobacco-specific nitrosamine detection assays and reagents” (priority 2003, published 2005)

Tested on: monoclonal antibody 245J15
Test: Competitive ELISA for total TSNAs using monoclonal antibody 245J15
Format: binding, mice
Conditions: NNK amount for 50% inhibition divided by test compound amount, x100
Method: Microtiter plates (Nunc, Maxisorp) were coated by adding 100 μl per well of goat anti mouse IgG Fc specific (Jackson Immunoresearch, West Grove, Pa.) at 2.5 micrograms per milliliter (μg/ml) in phosphate buffered saline (Sigma Chemical Co.) and allowing the solution to sit overnight. The next day, contents were discarded and unreacted sites on the plastic wells were blocked with 300 μl per well of PBT (1% Bovine Serum Albumen (Sigma Chemical Co.), 0.05% Tween 20 (Sigma Chemical Co.) in PBS) for one hour. Contents were again discarded and 100 μl was added per well of a 1/10,000 dilution of hybridoma culture supernatant of monoclonal antibody 245B5. Wells were then incubated one hour at room temperature. Contents of the wells were again discarded and wells washed three times with PBS with 0.05% Tween (PT). Aliquots containing 50 μl of test compounds diluted in PBT were added to the wells in duplicate, followed in less than five minutes by 50 μl of NNK conjugated to horseradish peroxidase (5 μg of horseradish peroxidase/ml). […] Color was read at 650 nm after fifteen minutes in a microplate reader (SpectraMax Plus, Molecular Devices, Sunnyvale, Calif.). […]
The affinity of monoclonal antibodies 245B5 and 245J15 to the N-nitroso group on compounds was evaluated using the immunoassay of Example 3 and the immunoassay of Example 4. […]

O=C(O)C1CCCNC1 (stereo not shown) [Nipecotic Acid]
% Crossreactivity: 0%
